## scFv variants of Ab-95 (light chain) against a SARS-CoV-2 spike peptide

Target: peptide PDVDLGDISGINAS, taken from heptad repeat 2 (HR2) of SARS-CoV-2 spike.

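Phage display of a naive human antibody library on the peptide gave the parent. AAYL52 was designed without a model: most single CDR substitutions and a random sample of double and triple ones. Affinity was read by AlphaSeq, a pooled yeast mating assay with surface-displayed partners. After mating in shaken culture at 30 °C for 16 h, diploids were selected and their barcode pairs sequenced. A regression on co-assayed BCL2-family reference pairs converts the normalised counts of each replicate to an apparent Kd. Mating was done three times.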

Parent: Ab-95, a human scFv built as VH, a (GGGGS)3 linker, VL. Only the CDRs of the light chain vary.
VH: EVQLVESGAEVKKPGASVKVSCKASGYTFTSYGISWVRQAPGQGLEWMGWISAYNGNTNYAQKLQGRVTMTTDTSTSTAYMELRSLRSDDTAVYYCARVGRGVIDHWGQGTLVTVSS
VL: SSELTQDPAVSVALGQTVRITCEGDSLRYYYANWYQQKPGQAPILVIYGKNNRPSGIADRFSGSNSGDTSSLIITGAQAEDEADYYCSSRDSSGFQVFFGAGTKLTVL

Each variant is given by its three light chain CDRs, as the data file delimits them; those of the parent are EGDSLRYYYAN, GKNNRPS, SSRDSSGFQVF. Scale: log10 of Kd in nM, estimated from mating counts; low values are strong binders. A mean of the replicates is given; it leaves out those without a signal. "n.d." marks a missing value. The strain was present, yet no cells mated with the target were sequenced in that replicate, which points to weak or no binding.

CDR-L1,CDR-L2,CDR-L3,"log10 Kd, replicates","mean, log10 nM",control signals
EGDSLRYYYAN,KKNNTPS,SSRDSSGFQLF,3.28 / n.d. / 3.86,3.57,3 of 9 (3.79)
EGDSLRYYYNN,GKNNRPS,SLRDSSGFQVF,3.55 / 3.32 / 2.58,3.15,5 of 9 (4.10)
EGDFKRYYYAN,GKNNRPH,SSRDSSGFQVF,4.30 / n.d. / n.d.,4.30,3 of 9 (3.09)
EGSSFRFYYAN,GKNNRPS,SSRDSSGFQVF,3.11 / 3.51 / 3.00,3.21,1 of 9 (4.83)
EGDSLRYYYAN,GKNNRPS,SSRDLSYFQVM,n.d. / n.d. / n.d.,n.d.,0 of 9
EGDSLRYYGAN,GKNCRPS,SSVDSSGFQVF,5.27 / 4.31 / n.d.,4.79,4 of 9 (3.98)
EGDSCRYYYAN,GFNNRPS,SSRDSSGFQVI,3.69 / 3.94 / 3.42,3.69,2 of 9 (4.17)
EGDSLRYYYAN,GKNNTKS,SSWDSSGFQVF,n.d. / n.d. / n.d.,n.d.,2 of 9 (3.07)
EGDSPRYYYAN,GKNNRPS,SSRDSSGFQQI,4.30 / 5.19 / n.d.,4.74,2 of 9 (2.98)
EGDYLRYYYAN,GKNNRPS,SSRDSSIFQVF,3.89 / 3.63 / n.d.,3.76,3 of 9 (4.04)
EADSYRLYYAN,GKNNRPS,SSRDSSGFQVF,4.17 / n.d. / 4.46,4.31,4 of 9 (4.15)
EGDSMLYYYAN,GKNNRPS,SSRDSSGFSVF,3.09 / 3.61 / 3.58,3.43,3 of 9 (3.46)
EGDSLRTYLAN,GKNNRPS,SGRDSSGFQVF,2.08 / 2.10 / 1.90,2.03,3 of 9 (3.96)
EGDSLRYYYAN,GKNNRPS,SSRDSSIFQVF,3.21 / 2.69 / n.d.,2.95,6 of 9 (4.73)
EGDSLRYYYPN,GKCNAPS,SSRDSSGFQVF,4.79 / n.d. / n.d.,4.79,1 of 9 (2.84)
EGDSLRYYYAH,GKNHRPS,SSRDASGFQVF,n.d. / 2.93 / 3.86,3.40,4 of 9 (3.14)
EGTSLWYYYAN,GKNNRPS,SSRDSFGFQVF,n.d. / 3.06 / n.d.,3.06,4 of 9 (3.90)
EGASLRYYYAN,GKNYRGS,SSRDSSGFQVF,2.75 / 2.71 / 3.30,2.92,5 of 9 (3.74)
EGDSKRYYYAI,GKNNRPS,SSRVSSGFQVF,n.d. / n.d. / n.d.,n.d.,0 of 9
EGDSLRTYYAN,WKNNRPS,SSRHSSGFQVF,3.77 / n.d. / n.d.,3.77,0 of 9
EGDSLRYYLAN,GKNNRPS,DSRDSSGFAVF,n.d. / n.d. / 4.37,4.37,5 of 9 (4.05)
RGDSLRYYYAN,GKNNRPS,SSRRSSGFQVF,2.56 / 2.78 / 2.27,2.53,1 of 9 (3.11)
EGDSVRYYYAN,GKNNRPS,SSRMSSRFQVF,3.62 / 3.49 / 2.34,3.15,2 of 9 (3.62)
YGDSLRYYYAC,GKVNRPS,SSRDSSGFQVF,4.41 / 4.75 / n.d.,4.58,3 of 9 (4.34)
EGDSLRYYYAN,GKNNRPT,SSLDSSQFQVF,2.46 / 2.18 / 2.65,2.43,5 of 9 (3.81)
EGDSLRYYYAN,GKNNTPS,SSRDSSAFQVA,3.11 / 2.24 / 2.56,2.64,2 of 9 (3.11)
EGDSLRWYYAN,GKMWRPS,SSRDSSGFQVF,3.35 / 4.63 / n.d.,3.99,4 of 9 (3.58)
EGDSLGYYYAN,EKNNRPS,SSRDSLGFQVF,3.74 / n.d. / n.d.,3.74,1 of 9 (2.21)
EGDSLRYYYAN,GKNNRPS,SSRWSAGFQSF,2.01 / 2.30 / 1.71,2.01,1 of 9 (2.88)
EGDSLRSYYAN,VKNNRPS,SSRDSSGFQVF,2.97 / 3.63 / 2.46,3.02,5 of 9 (3.67)
ENDSLKYYYAN,GKNNRPW,SSRDSSGFQVF,n.d. / n.d. / n.d.,n.d.,0 of 9
EGDSLRYYRAN,GKNNRNS,SSRDSSGFQVF,3.03 / 2.72 / 2.01,2.59,3 of 9 (3.88)
EGDSLRYMYAN,GKNNRPP,SSRDSSGFQVA,2.83 / 2.20 / 1.98,2.34,2 of 9 (3.94)

Again, the first 3 entries without any signal:

CDR-L1,CDR-L2,CDR-L3,"log10 Kd, replicates","mean, log10 nM",control signals
EGDSLRYYYAN,GKNNRPS,SSRDLSYFQVM,n.d. / n.d. / n.d.,n.d.,0 of 9
EGDSLRYYYAN,GKNNTKS,SSWDSSGFQVF,n.d. / n.d. / n.d.,n.d.,2 of 9 (3.07)
EGDSKRYYYAI,GKNNRPS,SSRVSSGFQVF,n.d. / n.d. / n.d.,n.d.,0 of 9

Background: pairings of library AAYL52 with three empty control strains gave a value in 28% of cases (median 3.91, 5th percentile 2.90). Values in that range, when seen in few replicates, are hard to tell from nonspecific mating. For each scFv, signals with the empty controls are counted beside the result, with their mean in brackets.

Values reported by Engelhart et al. 2022, doi:10.1038/s41597-022-01779-4 (FLAb copy).